Assays:
[1] = Encapsulation efficiency of platinum complexes in multilamellar liposomes (UV spectrophotometry / x-ray fluorescence); type: physicochemical; conditions: lipophilic cisplatin analogues incorporated in liposomes (Table 12)
Experimental: Multilamellar lipid vesicles (MLV) or liposomes containing incorporated platinum complexes (PT) of the above descriptions were prepared as previously described for other compounds (Lopez-Berestein et al (4)(1984) Clin. Exp. Metastasis V 2 pp 127-137 and Lopez-Berestein et al (1983) J Inf Dis V 147 pp 937-945). In brief, chloroform solutions of lipids (at the desired molar ratio) and PT were mixed at a lipid-PT ratio of 15:1 and the chloroform was evaporated in a rotary evaporator (Buchi, Brinkmann Instruments, Westbury, NY). The dried lipid film obtained, containing PT, was then dispersed with an aqueous solution (0.9% NaCl in water) by vigorous handshaking. The suspension was subsequently centrifuged at 30,000 ×g for 45 minutes, the supernatant was discarded, and the pellet containing PT was resuspended in 0.9% NaCl solution.
Elemental platinum (Pt) was determined in the liposome suspension and the pellet by x-ray fluorescence as previously reported (Seifert et al (1979) Proc. Amer. Ass'n. Cancer Res. V 20 p. 168) in the Department of Analytical Chemistry, The University of Texas Medical School at Houston, TX. The amount of platinum complex (PT) was determined in the supernatant by ultraviolet (UV) spectrophotometry using a wavelength of 224 nm. The EE was initially calculated with the two following formulas:
1. EE =Pt in pellet/total Pt in the initial liposome suspension
2. […]

[2] = Solubility in organic solvents and water; type: physicochemical

Substance: cis-bis-neodecanoato-ethylenediamine-platinum(II)
- Encapsulation Efficiency [1]: 82%
- solubility in methanol and chloroform, in words ([2]; methanol, chloroform (and other organic solvents where stated)): highly soluble
- solubility in water, in words ([2]; water): insoluble

Reference: patent US5041581A (priority 1986, dated 1991)
